Test results from ChEMBL document CHEMBL2417390 (J Med Chem, 2013).

Species on record: Homo sapiens
Test: Selectivity factor, ratio of IC50 for human CYP11B1 to IC50 for human CYP11B2

Ratio IC50: 1
Structure (SMILES): C[C@]12CC[C@H](O)CC1=CC[C@@H]1[C@@H]2CC[C@]2(C)C(c3cccnc3)=CC[C@@H]12
